{"source": "patent EP4205733B1", "about": "“COMPOSITION FOR THE TREATMENT OF OSTEOPENIA AND OSTEOPOROSIS” (MIVELL S.R.L.S., priority 2021, dated 2023)", "conditions": "at high concentrations"}
{"substance": "orthosilicic acid", "values": [{"measurement": "stability of the molecule", "value": "very unstable"}]}
